{"sequences": {"note": "Amino acid sequences for entries named in this document (tags omitted). Residues count along the entry.", "UniProt P06276, 29-602 D98G limits assumed": "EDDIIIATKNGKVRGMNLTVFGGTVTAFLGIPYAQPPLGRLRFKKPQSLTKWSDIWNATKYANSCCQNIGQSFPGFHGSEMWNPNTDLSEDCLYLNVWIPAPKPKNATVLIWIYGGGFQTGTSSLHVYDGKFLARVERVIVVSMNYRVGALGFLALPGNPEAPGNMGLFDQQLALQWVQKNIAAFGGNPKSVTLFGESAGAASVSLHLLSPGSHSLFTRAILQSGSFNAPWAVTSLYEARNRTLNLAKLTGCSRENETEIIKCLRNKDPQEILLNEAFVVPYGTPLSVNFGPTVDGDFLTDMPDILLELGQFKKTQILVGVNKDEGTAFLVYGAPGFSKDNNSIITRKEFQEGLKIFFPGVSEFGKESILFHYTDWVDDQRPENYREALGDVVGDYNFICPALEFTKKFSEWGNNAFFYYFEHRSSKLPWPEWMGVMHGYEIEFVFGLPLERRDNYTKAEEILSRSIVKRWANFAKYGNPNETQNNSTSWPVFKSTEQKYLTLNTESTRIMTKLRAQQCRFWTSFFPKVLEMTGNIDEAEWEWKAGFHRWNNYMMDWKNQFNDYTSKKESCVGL", "UniProt P22303, 32-614 limits assumed": "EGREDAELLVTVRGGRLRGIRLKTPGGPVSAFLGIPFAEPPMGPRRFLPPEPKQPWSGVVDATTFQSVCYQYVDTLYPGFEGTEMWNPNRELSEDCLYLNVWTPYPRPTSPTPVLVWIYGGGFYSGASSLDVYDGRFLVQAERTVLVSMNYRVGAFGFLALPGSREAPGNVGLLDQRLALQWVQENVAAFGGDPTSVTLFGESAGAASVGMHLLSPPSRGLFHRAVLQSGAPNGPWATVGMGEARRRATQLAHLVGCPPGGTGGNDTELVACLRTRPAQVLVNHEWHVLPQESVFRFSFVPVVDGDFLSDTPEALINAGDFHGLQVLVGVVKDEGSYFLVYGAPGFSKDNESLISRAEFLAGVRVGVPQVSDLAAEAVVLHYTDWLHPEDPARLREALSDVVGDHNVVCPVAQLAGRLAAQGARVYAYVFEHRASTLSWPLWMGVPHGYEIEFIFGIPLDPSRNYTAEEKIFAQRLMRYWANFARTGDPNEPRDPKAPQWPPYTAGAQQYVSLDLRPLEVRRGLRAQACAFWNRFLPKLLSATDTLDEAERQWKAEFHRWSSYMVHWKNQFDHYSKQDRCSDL"}, "source": "patent US6326139A", "about": "(priority 1997, dated 2001)", "key": {"\"atypical\" BuChE": {"target": "\"atypical\" BuChE (Homo sapiens, UniProt P06276, D98G)", "settings": "in contrast to the normal enzyme; cited from earlier work"}, "[1]": {"tested_on": "CFU-MK and CFU-GEMM cultures", "experiment": "Cell composition of bone marrow cultures", "settings": "with IL-3, and IL-3 + Epo and transferrin"}, "[2]": {"tested_on": "CFU-MK and CFU-GEMM cultures", "experiment": "Apoptotic DNA fragmentation", "settings": "CFU-MK 5 μM, CFU-GEMM 10 μM peak"}, "BCHEmRNA": {"tested_on": "BCHEmRNA", "experiment": "In situ hybridization of bone marrow smears, BCHEmRNA", "settings": "20 days after single i.p. injection, 5 μg/gr"}, "ACHEmRNA": {"tested_on": "ACHEmRNA", "experiment": "In situ hybridization of bone marrow smears, ACHEmRNA", "settings": "20 days after single i.p. injection, 5 μg/gr"}, "CFU-GEMM colonies": {"tested_on": "CFU-GEMM colonies", "experiment": "Differential cell analysis of CFU-GEMM colonies", "settings": "rising concentration up to 15 μM"}, "[3]": {"tested_on": "primary murine bone marrow cells (CFU-GEMM)", "experiment": "CFU-GEMM colony counts in primary bone marrow cultures", "settings": "for CFU-GEMM Colony Counts (Mean ± STD): day 8"}, "[4]": {"tested_on": "primary murine bone marrow cells (CFU-GEMM)", "experiment": "CFU-GEMM cell counts", "settings": "peak at 5-15 μM"}, "[5]": {"tested_on": "primary murine bone marrow cells (CFU-MK)", "experiment": "CFU-MK colony counts in primary bone marrow cultures", "settings": "for CFU-MK Colony counts: day 4"}, "[6]": {"target": "serum and recombinant \"atypical\" BuChE (Homo sapiens, UniProt P06276, D98G)", "experiment": "Inhibition by cocaine / α-solanine, \"atypical\" enzymes", "format": "biochemical"}, "[7]": {"tested_on": "infants of cocaine-using mothers", "settings": "mothers of average age of 27 years; cited from earlier work"}, "[8]": {"tested_on": "Rec. BuChE D/G (1:1 mixture)", "experiment": "Inhibition by cocaine / α-solanine, recombinant D/G mixture", "format": "biochemical, human", "settings": "read-out: IC50 Cocaine"}, "[9]": {"tested_on": "Serum BuChE D/G (heterozygote)", "experiment": "Inhibition by cocaine / α-solanine, serum D/G", "format": "biochemical, human", "settings": "read-out: IC50 Cocaine"}, "Rec. AChE": {"target": "Rec. AChE (Homo sapiens, UniProt P22303)", "experiment": "Inhibition by cocaine, recombinant AChE", "format": "biochemical", "settings": "up to 0.1 mM"}, "primates": {"tested_on": "primates", "settings": "acute and long-term (6 weeks) effects; cited from earlier work"}, "rats": {"tested_on": "rats", "settings": "prophylactic or therapeutic; cited from earlier work"}}, "data": [{"molecule": "CCOP(=O)(OCC)SCC[N+](C)(C)C", "values": [{"measurement": "sensitivity of atypical variant to inhibitors", "setting": "\"atypical\" BuChE", "value": "much less sensitive"}]}, {"molecule": "5'-GACTTTGCTATGCAT-3'", "values": [{"measurement": "cell composition, macrophages and neutrophils", "setting": "[1]", "value": "correspondingly more macrophages and neutrophils"}, {"measurement": "cell composition, megakaryocytes", "setting": "[1]", "value": "considerably less megakaryocytes"}, {"measurement": "apoptosis, difference from control lanes", "setting": "[2]", "value": "no discernible difference"}, {"measurement": "BCHEmRNA over MK in bone marrow smears", "setting": "BCHEmRNA", "value": "almost no BCHEmRNA could be detected"}, {"measurement": "reduction of ACHEmRNA labeling of MK", "setting": "ACHEmRNA", "value": 40, "unit": "%"}, {"measurement": "early MKs", "setting": "CFU-GEMM colonies", "value": "corresponding decline in early, but not late MKs"}, {"measurement": "CFU-GEMM Colony Counts (Mean ± STD)", "setting": "[3]; 5.0 μM", "value": "33.9 ± 9.8"}, {"measurement": "rise in CFU-GEMM number above control values", "setting": "[3]; 5 μM, representative experiment, FIG. 9", "value": "about 60%"}, {"measurement": "CFU-GEMM Colony Counts (Mean ± STD)", "setting": "[3]; 10.0 μM", "value": "32.6 ± 7.0"}, {"measurement": "CFU-GEMM Colony Counts (Mean ± STD)", "setting": "[3]; 15.0 μM", "value": "38.0 ± 16.4"}, {"measurement": "CFU-GEMM Colony Counts (Mean ± STD)", "setting": "[3]; 20.0 μM", "value": "31.0 ± 8.5"}, {"measurement": "CFU-GEMM Colony Counts (Mean ± STD)", "setting": "[3]; 30.0 μM", "value": "25.7 ± 6.4"}, {"measurement": "CFU-GEMM cell counts over controls", "setting": "[4]", "value": 2, "unit": "fold"}, {"measurement": "CFU-MK Colony counts", "setting": "[5]; 2.5 μM", "value": 274.4}, {"measurement": "CFU-MK Colony counts", "setting": "[5]; 5.0 μM", "value": 173.4}, {"measurement": "CFU-MK Colony counts", "setting": "[5]; 7.5 μM", "value": 80.7}, {"measurement": "CFU-MK Colony counts", "setting": "[5]; 10.0 μM", "value": 142.4}, {"measurement": "CFU-MK Colony counts", "setting": "[5]; 15.0 μM", "value": 130.2}, {"measurement": "CFU-MK numbers", "setting": "[5]; concentrations higher than 5 μM, absence of Epo", "value": "dropped sharply"}]}, {"molecule": "COC(=O)[C@H]1[C@@H](OC(=O)c2ccccc2)C[C@@H]2CC[C@H]1N2C", "note": "[cocaine]", "values": [{"measurement": "higher IC50 value for cocaine versus normal BuChE", "setting": "[6]; serum and recombinant \"atypical\"", "value": "> 10", "unit": "fold"}, {"measurement": "inhibition of \"atypical\" enzyme by cocaine", "setting": "[6]; up to 1 mM", "value": "relatively inert"}, {"measurement": "increased incidence of congenital anomalies", "setting": "[7]", "value": 4, "unit": "fold"}, {"measurement": "IC50", "setting": "[8]", "value": 670, "unit": "µM"}, {"measurement": "IC50", "setting": "[9]", "value": 290, "unit": "µM"}, {"measurement": "inhibition of recombinant AChE by cocaine", "setting": "Rec. AChE", "value": "insensitive to inhibition"}]}, {"molecule": "butyrylcholinesterase", "values": [{"measurement": "protection against soman", "setting": "primates", "value": "successful in protecting against subsequent injections of soman"}, {"measurement": "protection against cocaine toxicity", "setting": "rats", "value": "confer protection against cocaine toxicity in rats"}]}]}
